Measurements published in US20240050463A1, “THERAPEUTIC COMPOSITIONS AND METHODS FOR TREATING HEPATITIS B” (ARBUTUS BIOPHARMA CORPORATION, priority 2016, published 2024).
Read-outs that look alike come from different tables or passages of the source.

Assays:
Format in all cases: cell-based
[1] = system: D type HBV in primary human hepatocytes (PHH); experiment: HBV DNA in culture supernatants of HBV-infected primary human hepatocytes (qPCR), MacSynergy; settings: for AVERAGE % INHIBITION: HBV DNA, COMPOUND 3 0.00 μM
Protocol: (§1) The mouse liver perfusion was applied to isolate PHHs. The isolated hepatocytes were further purified by Percoll. The cells were resuspended with culture media and seeded into the 96-well plates (6×10^4 cell/well) or 48-well plates (1.2×10^5 cell/well). The PHHs were infected with a D type HBV one day post seeding (day 1).
(§2) On day 2, the test compounds were diluted and added into the cell culture plates. The culture media containing the compounds were refreshed every other day. The cell culture supernatants were collected on day 8 for the HBV DNA and antigen determinations.
(§3) The compounds were tested at 7 concentrations, 3-fold dilution, in triplicate.
(§4) Two compounds were tested at 5×5 matrix, in triplicate plates.
DNA in the culture supernatants harvested on days 8 were isolated with QIAamp 96 DNA Blood Kit (Qiagen-51161). For each sample, 100 μl of the culture supernatants was used to extract DNA. The DNA was eluted with 100 μl, 150 μl or 180 μl of AE. HBV DNA in the culture supernatants was quantified by qPCR. The combination effect was analyzed by the MacSynergy software. The primers are described below.

[2] = system: HBeAg, D type HBV in primary human hepatocytes (PHH); settings: for AVERAGE % INHIBITION: HBeAg, COMPOUND 3 0.00 μM
Protocol: as §1, §2, §3, §4
(§5) HBsAg/HBeAg in the culture supernatants harvested on days 8 were measured by the HBsAg/HBeAg ELISA kit (Autobio) according to the manual. The samples were diluted with PBS to get the signal in the range of the standard curve. The inhibition rates were calculated with the formula below. The combination effect was analyzed by the MacSynergy software.
% Inh. HBeAg=[1−HBeAg quantity of sample/HBV quantity of DMSO control]×100.

[3] = system: HBsAg, D type HBV in primary human hepatocytes (PHH); settings: for AVERAGE % INHIBITION: HBsAg, COMPOUND 3 0.00 μM
Protocol: as §1, §2, §3, §4, §5
% Inh. HBsAg=[1−HBsAg quantity of sample/HBV quantity of DMSO control]×100.

[4] = IFNα2a 0.12 IU/mL, COMPOUND 25 0.00 μM
[5] = IFNα2a 0.37 IU/mL, COMPOUND 25 0.00 μM
[6] = IFNα2a 1.11 IU/mL, COMPOUND 25 0.00 μM
[7] = IFNα2a 3.33 IU/mL, COMPOUND 25 0.00 μM
[8] = IFNα2a 10.00 IU/mL, COMPOUND 25 0.00 μM

pegIFN α-2a: pegylated interferon alpha-2a
AVERAGE % INHIBITION ([1]; IFNα2a 0.12 IU/mL): 8.4% | AVERAGE % INHIBITION ([1]; IFNα2a 0.37 IU/mL): 38.46% | AVERAGE % INHIBITION ([1]; IFNα2a 1.11 IU/mL): 43.03% | AVERAGE % INHIBITION ([1]; IFNα2a 3.33 IU/mL): 59.88% | AVERAGE % INHIBITION ([1]; IFNα2a 10.00 IU/mL): 61.87% | AVERAGE % INHIBITION, HBV DNA ([1]; IFNα2a 0.12 IU/mL alone): −18.56% | AVERAGE % INHIBITION, HBV DNA [1, 4]: −19.84% | AVERAGE % INHIBITION, HBV DNA ([1]; IFNα2a 0.37 IU/mL alone): 6.59% | AVERAGE % INHIBITION, HBV DNA [1, 5]: 22.81% | AVERAGE % INHIBITION, HBV DNA ([1]; IFNα2a 1.11 IU/mL alone): 28.08% | AVERAGE % INHIBITION, HBV DNA [1, 6]: 32.66% | AVERAGE % INHIBITION, HBV DNA ([1]; IFNα2a 3.33 IU/mL alone): 52.39% | AVERAGE % INHIBITION, HBV DNA [1, 7]: 46.92% | AVERAGE % INHIBITION, HBV DNA ([1]; IFNα2a 10.00 IU/mL alone): 59% | AVERAGE % INHIBITION, HBV DNA [1, 8]: 58.66% | AVERAGE % INHIBITION ([2]; IFNα2a 0.12 IU/mL): −9.5% | AVERAGE % INHIBITION ([2]; IFNα2a 0.37 IU/mL): −2.24% | AVERAGE % INHIBITION ([2]; IFNα2a 1.11 IU/mL): 19.32% | AVERAGE % INHIBITION ([2]; IFNα2a 3.33 IU/mL): 14.38% | AVERAGE % INHIBITION ([2]; IFNα2a 10.00 IU/mL): 32.8% | AVERAGE % INHIBITION, HBeAg ([2]; IFNα2a 0.12 IU/mL alone): 7.42% | AVERAGE % INHIBITION, HBeAg [2, 4]: −21.05% | AVERAGE % INHIBITION, HBeAg ([2]; IFNα2a 0.37 IU/mL alone): 1.78% | AVERAGE % INHIBITION, HBeAg [2, 5]: −12.17% | AVERAGE % INHIBITION, HBeAg ([2]; IFNα2a 1.11 IU/mL alone): 15.27% | AVERAGE % INHIBITION, HBeAg [2, 6]: −1.13% | AVERAGE % INHIBITION, HBeAg ([2]; IFNα2a 3.33 IU/mL alone): 17.16% | AVERAGE % INHIBITION, HBeAg [2, 7]: 6.47% | AVERAGE % INHIBITION, HBeAg ([2]; IFNα2a 10.00 IU/mL alone): 30.13% | AVERAGE % INHIBITION, HBeAg [2, 8]: 17.32% | AVERAGE % INHIBITION ([3]; IFNα2a 0.12 IU/mL): 1.56% | AVERAGE % INHIBITION ([3]; IFNα2a 0.37 IU/mL): 6.9% | AVERAGE % INHIBITION ([3]; IFNα2a 1.11 IU/mL): 14.91% | AVERAGE % INHIBITION ([3]; IFNα2a 3.33 IU/mL): 12.8% | AVERAGE % INHIBITION ([3]; IFNα2a 10.00 IU/mL): 24.94% | AVERAGE % INHIBITION, HBsAg ([3]; IFNα2a 0.12 IU/mL alone): −1.67% | AVERAGE % INHIBITION, HBsAg [3, 4]: −4.08% | AVERAGE % INHIBITION, HBsAg ([3]; IFNα2a 0.37 IU/mL alone): 4.6% | AVERAGE % INHIBITION, HBsAg [3, 5]: 2.74% | AVERAGE % INHIBITION, HBsAg ([3]; IFNα2a 1.11 IU/mL alone): 8.8% | AVERAGE % INHIBITION, HBsAg [3, 6]: 10.57% | AVERAGE % INHIBITION, HBsAg ([3]; IFNα2a 3.33 IU/mL alone): 10.2% | AVERAGE % INHIBITION, HBsAg [3, 7]: 18.32% | AVERAGE % INHIBITION, HBsAg ([3]; IFNα2a 10.00 IU/mL alone): 20.1% | AVERAGE % INHIBITION, HBsAg [3, 8]: 22.77%
